Source: patent publication US9468642B2, “Imidazopyrazines” (BAYER INTELLECTUAL PROPERTY GMBH, priority 2011, dated 2016)

Amino acid sequences for entries named in this document (tags omitted). A change or cut given only in a name is not applied to a line headed by its entry.
UniProt P33981: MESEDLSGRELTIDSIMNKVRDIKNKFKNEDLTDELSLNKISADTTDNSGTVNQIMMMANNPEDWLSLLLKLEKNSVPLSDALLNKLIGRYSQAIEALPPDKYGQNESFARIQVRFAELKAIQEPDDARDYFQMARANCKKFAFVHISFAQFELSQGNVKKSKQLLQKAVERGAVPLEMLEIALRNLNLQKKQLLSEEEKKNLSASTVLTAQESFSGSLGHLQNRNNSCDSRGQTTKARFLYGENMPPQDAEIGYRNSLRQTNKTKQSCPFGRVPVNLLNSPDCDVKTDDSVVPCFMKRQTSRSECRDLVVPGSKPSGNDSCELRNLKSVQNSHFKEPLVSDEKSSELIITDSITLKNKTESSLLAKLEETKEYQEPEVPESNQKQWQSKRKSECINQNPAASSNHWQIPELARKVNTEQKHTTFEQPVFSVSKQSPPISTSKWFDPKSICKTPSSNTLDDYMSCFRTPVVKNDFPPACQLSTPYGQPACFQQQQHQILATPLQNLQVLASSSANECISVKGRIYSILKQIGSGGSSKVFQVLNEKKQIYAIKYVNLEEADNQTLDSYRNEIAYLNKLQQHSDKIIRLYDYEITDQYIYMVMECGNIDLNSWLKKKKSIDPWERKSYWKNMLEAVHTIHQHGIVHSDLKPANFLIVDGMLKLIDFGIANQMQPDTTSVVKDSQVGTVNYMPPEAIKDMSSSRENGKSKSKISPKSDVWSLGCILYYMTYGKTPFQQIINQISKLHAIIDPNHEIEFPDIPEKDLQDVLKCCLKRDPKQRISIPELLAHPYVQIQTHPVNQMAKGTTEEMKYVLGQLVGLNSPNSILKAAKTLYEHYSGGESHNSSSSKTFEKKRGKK

Each compound was assayed against human kinase Mps-1 (Homo sapiens (Human), UniProt P33981) (assay: Mps-1 Kinase Assay (TR-FRET)). Settings: N-terminally GST-tagged human full length recombinant Mps-1; 10 μM ATP; 1 μM peptide substrate; 60 min at 22° C.; read-out: Mps1 IC50.
Format: biochemical
Method: The human kinase Mps-1 phosphorylates a biotinylated substrate peptide. Detection of the phosphorylated product is achieved by time-resolved fluorescence resonance energy transfer (TR-FRET) from Europium-labelled anti-phospho-Serine/Threonine antibody as donor to streptavidin labelled with cross-linked allophycocyanin (SA-XLent) as acceptor. Compounds are tested for their inhibition of the kinase activity.
N-terminally GST-tagged human full length recombinant Mps-1 kinase (purchased from Invitrogen, Karslruhe, Germany, cat. no PV4071) was used. As substrate for the kinase reaction a biotinylated peptide of the amino-acid sequence […] (C-terminus in amide form, purchased from Biosynthan GmbH, Berlin) was used.
The concentration of Mps-1 in the assay was adjusted to the activity of the enzyme lot and was chosen appropriate to have the assay in the linear range, typical enzyme concentrations were in the range of about 1 nM (final conc. in the 5 μl assay volume).
The resulting mixture was incubated 1 h at 22° C. to allow the binding of the phosphorylated peptide to the anti-phospho(Ser/Thr)-Europium-antibody. Subsequently the amount of phosphorylated substrate was evaluated by measurement of the resonance energy transfer from the Europium-labelled anti-phospho(Ser/Thr) antibody to the Streptavidin-XLent.

| SMILES | IC50 |
| --- | --- |
| CC[S+]([O-])c1nc(-c2ccccc2)cn2c(-c3ccc(C(=O)NC4CC4)cc3)cnc12 (racemic) [Example 5A, (RS) N-Cyclopropyl-4-[8-(ethylsulfinyl)-6-phenylimidazo[1,2-a]pyrazin-3-yl]benzamide] | 27.7 nM |
| CCCC[S+]([O-])c1nc(-c2ccccc2)cn2c(-c3ccc(C(=O)NC4CC4)cc3)cnc12 (racemic) [Example 9A, (RS) 4-[8-(Butylsulfinyl)-6-phenylimidazo[1,2-a]pyrazin-3-yl]-N-cyclopropylbenzamide] | 10.3 nM |
| CC(C)(C)CC[S+]([O-])c1nc(-c2ccccc2)cn2c(-c3ccc(C(=O)NC4CC4)cc3)cnc12 (racemic) [Example 11A, (RS) N-Cyclopropyl-4-{8-[(3,3-dimethylbutyl)sulfinyl]-6-phenylimidazo[1,2-a]pyrazin-3-yl}benzamide] | 23 nM |
| O=C(NC1CC1)c1ccc(-c2cnc3c([S+]([O-])Cc4ccco4)nc(-c4ccccc4)cn23)cc1 (racemic) [Example 28A, (RS) N-cyclopropyl-4-{8-[(2-furylmethyl)sulfinyl]-6-phenylimidazo[1,2-a]pyrazin-3-yl}benzamide] | 16.9 nM |
| CSc1nc(-c2ccc(CCO)cc2)cn2c(-c3ccc(-c4cnc(C5CC5)[nH]4)cc3)cnc12 (single isomer, unassigned) [Example 34A, 2-(4-{3-[4-(2-cyclopropyl-1H-imidazol-5-yl)phenyl]-8-(methylsulfanyl)imidazo[1,2-a]pyrazin-6-yl}phenyl)ethanol] | 48.7 nM |
